Target: human serum albumin (HSA) (Homo sapiens, UniProt P02768)
Test: Binding to HSA, Chiralpak HSA column

Amino acid sequences for entries named in this document (tags omitted). Residues count along the entry.
UniProt P02768, 25-609: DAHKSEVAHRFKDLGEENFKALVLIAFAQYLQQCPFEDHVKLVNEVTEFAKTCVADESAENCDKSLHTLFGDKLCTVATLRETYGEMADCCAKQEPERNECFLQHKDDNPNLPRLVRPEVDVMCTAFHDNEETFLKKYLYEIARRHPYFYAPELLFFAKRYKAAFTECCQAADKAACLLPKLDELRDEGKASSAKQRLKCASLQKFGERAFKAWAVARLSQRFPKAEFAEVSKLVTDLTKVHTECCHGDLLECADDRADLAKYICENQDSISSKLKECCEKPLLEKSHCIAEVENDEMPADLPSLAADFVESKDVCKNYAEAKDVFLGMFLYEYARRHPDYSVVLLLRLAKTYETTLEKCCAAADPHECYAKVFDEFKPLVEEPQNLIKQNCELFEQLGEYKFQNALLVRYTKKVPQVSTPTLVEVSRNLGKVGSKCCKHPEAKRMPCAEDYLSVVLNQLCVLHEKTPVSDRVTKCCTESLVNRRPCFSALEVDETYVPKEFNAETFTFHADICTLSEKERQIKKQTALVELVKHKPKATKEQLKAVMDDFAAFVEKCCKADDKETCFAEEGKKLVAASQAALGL

With `COc1ccc(C(CN(C)C)C2(O)CCCCC2)cc1` (stereo not shown) [Venlafaxine, reference compound] the “%HSA” value was 22.4%.
